# According to PubChem BioAssay AID1825 (The Scripps Research Institute Molecular Screening Center, 2009):
# This is a selection; strong and weak results do not stand in their true shares. Calls of active or inactive are those of the source. Cut-off read from the data, not from the text of the source: active = inhibition above about 22%; inactive = the rest.
# Experiment: IEC-6 cell viability reduction – luminescence, cytotoxicity control for KLF5 inhibitor project, primary screen (AID 1825);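 note: 0% = plate median of test compound wells and 100% = cytotoxic reference compound wells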
# Settings: IEC-6 cytotoxicity, at 5 µM, stronger effect = higher value
row,SMILES,inhibition
1,CCOC(=O)c1ccc(NP(C)(=O)Oc2ccc(F)cc2)cc1 (configuration not stated),inactive: 3.3%
2,COc1ccc(OP(C)(=O)Nc2ccc(SC(F)(F)F)cc2)cc1 (configuration not stated),inactive: 0.8%
3,CCN(CC)CCCOC(=O)C(O)(c1ccccc1)C1CCCCC1 (configuration not stated),inactive: -0.7%
4,CP(=O)(Nc1ccccc1)Oc1ccc(F)cc1 (configuration not stated),inactive: -6.4%
5,CCCCCOc1ccc(NP(C)(=O)Oc2ccc(Cl)cc2Cl)cc1 (configuration not stated),inactive: -6.9%
6,O=[N+]([O-])c1cc([N+](=O)[O-])c(OC2CCCCC2O)c([N+](=O)[O-])c1 (configuration not stated),inactive: -13.2%
7,CP(=O)(Nc1ccccc1F)Oc1ccccc1 (configuration not stated),inactive: -9.8%
8,CC(C)c1ccc(OP(C)(=O)Nc2ccc(SC(F)(F)F)cc2)cc1 (configuration not stated),inactive: -2.4%
9,O=C(OC1CN2CCC1CC2)c1ccc([N+](=O)[O-])cc1 (configuration not stated),inactive: 3.2%
10,O=C(OCCN1CCN(CCOCc2ccccc2)CC1)C(O)(c1ccccc1)c1ccccc1,inactive: -3%
11,CP(=O)(Nc1ccc(SC(F)(F)F)cc1)Oc1ccc(F)cc1 (configuration not stated),inactive: 0.2%
12,CCOP(C)(=S)SCC(=O)NC(C)(CC)C(=O)O (configuration not stated),inactive: 0.7%
13,CP(=O)(Nc1ccc2c(c1)OCCO2)Oc1ccccc1 (configuration not stated),inactive: -3.6%
14,Cc1ccccc1NP(C)(=O)Nc1ccccc1C,inactive: -4.8%
15,COc1ccc(OP(C)(=O)Nc2cccc(Br)c2)cc1 (configuration not stated),inactive: -3.8%
16,CN(C)CCOC(=O)C(O)(c1ccccc1)C1CCCCC1 (configuration not stated),inactive: 3.1%
17,COc1ccc(NP(C)(=O)Oc2ccccc2OC)cc1 (configuration not stated),inactive: -0.5%
18,O=[N+]([O-])c1ccc(OP2(=O)COCCO2)cc1 (configuration not stated),inactive: 1.25%
19,Cc1cc(-c2cccc3ccccc23)c(C)cn1.O=[N+]([O-])c1cc([N+](=O)[O-])c(O)c([N+](=O)[O-])c1,inactive: 2.9%
20,O=[N+]([O-])c1cc([N+](=O)[O-])c(NCC2CCS(=O)(=O)C2)c([N+](=O)[O-])c1 (configuration not stated),inactive: -2.3%
21,CCOC(=O)c1ccc(NP(C)(=O)Oc2ccc(Cl)cc2)cc1 (configuration not stated),inactive: 2.2%
22,CP(=O)(OC12CC3CC(CC(C3)C1)C2)OC12CC3CC(CC(C3)C1)C2,inactive: 4.4%
23,COc1ccc(OP(C)(=O)Nc2ccc(Br)cc2)cc1 (configuration not stated),inactive: -4.8%
24,CCN(CC)CC(O)COC(=O)C(O)(c1ccccc1)C1CCCCC1 (configuration not stated),inactive: -1%
25,O=C(OCCCN1CCCC1)C(O)(c1ccccc1)C1CCCCC1 (configuration not stated),inactive: 2.5%
26,COc1ccccc1OP(C)(=O)Nc1c(C)n(C)n(-c2ccccc2)c1=O (configuration not stated),inactive: 2.1%
27,CCc1ccc(OP(C)(=O)Nc2cccnc2)cc1 (configuration not stated),inactive: -0.4%
